Test: Extractive agents evaluated in vapor-liquid equilibrium still (separating water from t-butanol)
Type: physicochemical
Settings: extractive agent

Row | Substance | Relative Volatility (brings t-butanol out as overhead (*)) | Relative Volatility (water as overhead)
1 | Dipropylene glycol | 1.32 | 
2 | 2-Hydroxyacetophenone |  | 1.32
